Data reported in ChEMBL document CHEMBL1134339, “New 1-aryl-3-(4-arylpiperazin-1-yl)propane derivatives, with dual action at 5-HT1A serotonin receptors and serotonin transporter, as a new class of antidepressants” (J Med Chem, 2001).

Protein sequences, listed by entry. Tags and fused reporters are not part of them.
UniProt P19327, whole entry: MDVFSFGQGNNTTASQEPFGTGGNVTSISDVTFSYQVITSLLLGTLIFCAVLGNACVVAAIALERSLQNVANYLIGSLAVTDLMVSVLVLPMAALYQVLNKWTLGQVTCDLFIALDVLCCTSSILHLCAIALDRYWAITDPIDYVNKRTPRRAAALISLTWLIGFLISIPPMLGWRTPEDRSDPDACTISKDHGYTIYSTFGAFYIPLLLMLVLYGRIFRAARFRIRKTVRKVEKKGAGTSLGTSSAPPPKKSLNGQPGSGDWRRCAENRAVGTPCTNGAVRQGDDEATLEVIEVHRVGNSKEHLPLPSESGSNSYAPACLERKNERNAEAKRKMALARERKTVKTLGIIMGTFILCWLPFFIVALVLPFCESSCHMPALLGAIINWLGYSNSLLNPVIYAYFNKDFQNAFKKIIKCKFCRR

Target: 5-hydroxytryptamine receptor 1A (Rattus norvegicus, UniProt P19327)
Experiment: Binding affinity to 5-hydroxytryptamine 1A receptor (5-HT 1A receptor, serotonin receptor) from rat cortex using [3H]8-OH-DPAT as radioligand

- Ki: 2750 nM
SMILES: OC(CCN1CCN(c2ccc(Cl)cc2)CC1)c1ccsc1 (stereo unspecified)
